Reference: publication PMC12974487, “Inhibition of FicD-mediated AMPylation and deAMPylation by isoprenoid diphosphates” (Proceedings of the National Academy of Sciences of the …, 2026)

Target: T1, FicD^L258D (Homo sapiens, UniProt Q9BVA6, L258D)
T1 construct: soluble ER luminal domain (residues 105 to 458) of wild-type human FicD and three mutants; 6xHis-Sumo (N, cleaved yes); made in house; host or cells: Rosetta(DE3) E. coli
T1 sequence (Q9BVA6 105-458 L258D): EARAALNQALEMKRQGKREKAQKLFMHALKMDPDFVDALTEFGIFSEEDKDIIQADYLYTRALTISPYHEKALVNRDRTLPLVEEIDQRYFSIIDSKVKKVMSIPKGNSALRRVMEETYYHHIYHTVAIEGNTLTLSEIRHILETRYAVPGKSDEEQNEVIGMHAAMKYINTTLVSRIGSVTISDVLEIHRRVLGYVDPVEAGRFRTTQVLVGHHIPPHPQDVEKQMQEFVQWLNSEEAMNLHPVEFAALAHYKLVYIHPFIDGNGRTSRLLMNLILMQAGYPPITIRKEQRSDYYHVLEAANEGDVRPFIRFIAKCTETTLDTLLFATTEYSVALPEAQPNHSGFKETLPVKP
Test: Differential scanning fluorimetry (DSF) thermal shift with FicD^L258D
Format: binding
Conditions: 5 mM MgCl2, read-out: EC50 of DSF dose-response (ΔTm)
Protocol: Differential Scanning Fluorimetry
Thermal shift assays were performed in Biorad CfX384 Touch Real-Time PCR Detection System
Reactions contained 50mM HEPES pH 7.4, 200mM NaCl,
200mM KCl, 200uM DTT, 5X Invitrogen Sypro Orange (Cat no. S6650), 8-9μM protein, and
indicated nucleotide, cofactor, or small molecule in a total volume of 20uL. For every experiment
‘no protein’ controls were also included with the same reaction conditions. All reactions were […]

Substance: deoxyadenosine diphosphate [dADP]
- EC50: 280 µM
